The record followed here is patent US9734282B2, “Biological dataset profiling of cardiovascular disease and cardiovascular inflammation” (DISCOVERX CORPORATION, priority 2005, dated 2017).

The test system of assay [1] is Peripheral Blood Mononuclear Cells + Endothelial Cells. As to the kind of experiment: BioMAP SAg system (PBMC + endothelial cells, TCR), cell-based ELISA. Further details: species or system human. Particulars: protein level drug-treated versus buffer control, 24 h. On the procedure: Human umbilical vein endothelial cells (HUVEC) were cultured according to standard methods, and plated into microtiter plates. Peripheral blood mononuclear cells (PBMC) were prepared from buffy coats from normal human donors according to standard methods. Experiments were performed by culturing HUVEC in microtiter plates in the presence of cytokines (IL-1b, 1 ng/ml; TNF-a, 5 ng/ml; and IFN-g, 100 ng/ml, or IL-4, 5 ng/ml and histamine, […]), activators (SAg, 20 ng/ml or LPS, 0.2 ng/ml), and/or PBMC (7.5×10^4 cells/well) for 24 h. Compounds were tested at the indicated concentrations. Compounds were prepared in the solvent as directed, added 1 hr before stimulation of the cells, and were present during the whole 24 hr stimulation period.
(§1) The levels of readout parameters (proteins) were measured by cell-based ELISA. Briefly, microtiter plates are treated, blocked, and then incubated with primary antibodies or isotype control antibodies (0.01-0.5 mg/ml) for 1 hr. After washing, plates were incubated with a peroxidase-conjugated anti-mouse IgG secondary antibody or a biotin-conjugated anti-mouse IgG antibody for 1 hr followed by streptavidin-HRP for 30 min. Plates were washed and developed with TMB substrate and the absorbance (OD) was read at 450 nm (subtracting the background absorbance at 650 nm). Other readout parameters include: total protein levels (SRB assay), measuring the viability of peripheral blood mononuclear cells (incorporation of propidium iodide); and microscopic visualization. SRB was performed by staining cells with 0.1% sulforhodamine B after fixation with 10% TCA, and reading wells at 560 nm. PBMC viability was assessed by adding propidium iodide (10 mg/ml) to PBMC that had been cultured for 24 hours in the presence of activators and measuring the percentage of cells that incorporated dye by flow cytometry after 10 minutes.
For data analysis, mean OD values (or other measurements) for each parameter were calculated from triplicate samples per experiment. […] 99% prediction envelopes (grey shading in Figures) were calculated for historical controls.
(In an ELISA, binding on a coated surface is turned into a signal by an enzyme label.)

The test system of assay [2] is Primary Human Endothelial Cells (HUVEC). As to the kind of experiment: BioMAP 4H system (endothelial cells + IL-4 + histamine), cell-based ELISA. Particulars: protein level drug-treated versus buffer control, 24 h. On the procedure:
Human umbilical vein endothelial cells (HUVEC) were cultured according to standard methods, and plated into microtiter plates. Peripheral blood mononuclear cells (PBMC) were prepared from buffy coats from normal human donors according to standard methods. Experiments were performed by culturing HUVEC in microtiter plates in the presence of cytokines (IL-1b, 1 ng/ml; TNF-a, 5 ng/ml; and IFN-g, 100 ng/ml, or IL-4, 5 ng/ml and histamine, […]), activators (SAg, 20 ng/ml or LPS, 0.2 ng/ml), and/or PBMC (7.5×10^4 cells/well) for 24 h. Compounds were tested at the indicated concentrations. […]
as §1, with “Briefly, microtiter plates are treated, blocked, and then incubated with primary antibodies or isotype control antibodies (0.01-0.5 mg/ml) for 1 hr. After washing, plates were incubated with a peroxidase-conjugated anti-mouse IgG secondary antibody or a biotin-conjugated anti-mouse IgG antibody for 1 hr followed by streptavidin-HRP for 30 min.” left out, “minutes. […]” for “minutes.”

Consider `CC[C@H](C)C(=O)O[C@H]1C[C@@H](C)C=C2C=C[C@H](C)[C@H](CC[C@@H]3C[C@@H](O)CC(=O)O3)[C@H]21` [lovastatin], for which, in assay [1], the CD69 level result is “significant decreases”, the E-selectin level entry was “increases” and the IL-8 level entry is recorded as “increases”. For the same compound, the P-selectin level result in assay [2] was “increases”.
